The structures appear in SMILES notation.

For twelve compounds, IC50 and selectivity ratio results are on record in ChEMBL document CHEMBL4265952, “One-pot, multi-component synthesis and structure-activity relationships of peptoid-based histone deacetylase (HDAC) inhibitors targeting malaria parasites” (Eur J Med Chem, 2018).

The test system of one series is NFF. In words: cells. The settings on record: Homo sapiens.
Turning to `CCCCNC(=O)CN(Cc1ccc(C(=O)NO)cc1)C(=O)c1cccc(N(C)C)c1`, the IC50 was > 10000 nM.
Same read-out and setting: as for `CN(C)c1cccc(C(=O)N(CC(=O)NC(C)(C)C)Cc2ccc(C(=O)NO)cc2)c1`, the figure is > 10000 nM; as for `Cc1ccc(C(=O)N(CC(=O)NC2CCCCC2)Cc2ccc(C(=O)NO)cc2)cc1`, > 3000 nM.
The same measure, in the same setting: as for `CC(C)(C)NC(=O)CN(Cc1ccc(C(=O)NO)cc1)C(=O)c1cccc2ccccc12`, the figure is > 10000 nM; as for `Cc1ccc(C(=O)N(CC(=O)NC(C)(C)C)Cc2ccc(C(=O)NO)cc2)cc1C`, > 10000 nM.
In the case of `CCCCNC(=O)CN(Cc1ccc(C(=O)NO)cc1)C(=O)c1ccc(N(C)C)cc1`, the IC50 was > 2000 nM.
Consider `Cc1ccc(NC(=O)CN(Cc2ccc(C(=O)NO)cc2)C(=O)c2cccc(N(C)C)c2)cc1`, for which the half-inhibitory concentration (IC50) was > 10000 nM.
Regarding `CCCCNC(=O)CN(Cc1ccc(C(=O)NO)cc1)C(=O)c1cc(C)cc(C)c1`, the IC50 is > 10000 nM.
`CC(C)(C)NC(=O)CN(Cc1ccc(C(=O)NO)cc1)C(=O)c1ccccc1`: the IC50 was > 10000 nM.
`Cc1ccccc1C(=O)N(CC(=O)NC1CCCCC1)Cc1ccc(C(=O)NO)cc1`: the IC50 is > 10000 nM.
On the same count and under the same terms, as for `CN(C)c1cccc(C(=O)N(CC(=O)NC2CCCCC2)Cc2ccc(C(=O)NO)cc2)c1`, the figure is > 10000 nM.

Tested on in a further series: not listed separately
In words: cells. Particulars: Homo sapiens, HepG2A16, 48 h.
Take `Cc1ccc(C(=O)N(CC(=O)NC2CCCCC2)Cc2ccc(C(=O)NO)cc2)cc1`: 12300 nM corresponded to half-maximal inhibition (IC50).
On to `Cc1ccc(C(=O)N(CC(=O)NC(C)(C)C)Cc2ccc(C(=O)NO)cc2)cc1C`, for which the IC50 was 25900 nM. Compared with the last compound, the IC50 is about 2.1-fold higher.
In turn, `CCCCNC(=O)CN(Cc1ccc(C(=O)NO)cc1)C(=O)c1ccc(N(C)C)cc1` displayed an IC50 of 6990 nM.

Tested on in a further series: not listed separately
Kind of series: in vitro. Particulars: human, erythrocytes.
`CCCCNC(=O)CN(Cc1ccc(C(=O)NO)cc1)C(=O)c1cccc(N(C)C)c1`: the selectivity ratio is 196 to 233.
Turning to `CN(C)c1cccc(C(=O)N(CC(=O)NC(C)(C)C)Cc2ccc(C(=O)NO)cc2)c1`, the selectivity ratio was in the range of 213 to 345.
As for `CC(C)(C)NC(=O)CN(Cc1ccc(C(=O)NO)cc1)C(=O)c1cccc2ccccc12`, the selectivity ratio is 169 to 196.
For `Cc1ccc(NC(=O)CN(Cc2ccc(C(=O)NO)cc2)C(=O)c2cccc(N(C)C)c2)cc1`, the selectivity ratio was 204 to 263.
With `CCCCNC(=O)CN(Cc1ccc(C(=O)NO)cc1)C(=O)c1cc(C)cc(C)c1`, the selectivity ratio was in the range of 178 to 213.
On to `CC(C)(C)NC(=O)CN(Cc1ccc(C(=O)NO)cc1)C(=O)c1ccccc1`, for which the selectivity ratio lay in the range of 63 to 185.
On to `Cc1ccccc1C(=O)N(CC(=O)NC1CCCCC1)Cc1ccc(C(=O)NO)cc1`, for which the selectivity ratio is 132 to 175.
`CN(C)c1cccc(C(=O)N(CC(=O)NC2CCCCC2)Cc2ccc(C(=O)NO)cc2)c1`: the selectivity ratio lay within 227 to 270.

Tested on in a further series: not listed separately
In words: in vitro. The settings on record: human, erythrocytes. The source holds these as a separate data set.
Turning to `CCCCNC(=O)CN(Cc1ccc(C(=O)NO)cc1)C(=O)c1cccc(N(C)C)c1`, the selectivity ratio lay in the range of 196 to 233.
For `CN(C)c1cccc(C(=O)N(CC(=O)NC(C)(C)C)Cc2ccc(C(=O)NO)cc2)c1`, the selectivity ratio was 213 to 345.
Regarding `CC(C)(C)NC(=O)CN(Cc1ccc(C(=O)NO)cc1)C(=O)c1cccc2ccccc12`, the selectivity ratio is 169 to 196.
Consider `Cc1ccc(NC(=O)CN(Cc2ccc(C(=O)NO)cc2)C(=O)c2cccc(N(C)C)c2)cc1`, for which the selectivity ratio was 204 to 263.
As for `CCCCNC(=O)CN(Cc1ccc(C(=O)NO)cc1)C(=O)c1cc(C)cc(C)c1`, the selectivity ratio is 178 to 213.
Take `CC(C)(C)NC(=O)CN(Cc1ccc(C(=O)NO)cc1)C(=O)c1ccccc1`: the selectivity ratio was in the range of 63 to 185.
Regarding `Cc1ccccc1C(=O)N(CC(=O)NC1CCCCC1)Cc1ccc(C(=O)NO)cc1`, the selectivity ratio fell in the range of 132 to 175.
As for `CN(C)c1cccc(C(=O)N(CC(=O)NC2CCCCC2)Cc2ccc(C(=O)NO)cc2)c1`, the selectivity ratio lay within 227 to 270.

For another series, the system named is Plasmodium falciparum. Kind of series: microbe, parasite or virus in culture. The settings on record: 3D7, 3 h.
In the case of `Cc1ccc(NC(=O)CN(Cc2ccc(C(=O)NO)cc2)C(=O)c2cc(C)cc(C)c2)cc1`, the IC50 was found to be 33 nM.
`CCCCNC(=O)CN(Cc1ccc(C(=O)NO)cc1)C(=O)c1cccc(N(C)C)c1` displayed an IC50 of 51 nM.
For `CN(C)c1cccc(C(=O)N(CC(=O)NC(C)(C)C)Cc2ccc(C(=O)NO)cc2)c1`, the IC50 is 47 nM.
Same read-out and setting: next, `Cc1ccc(C(=O)N(CC(=O)NC2CCCCC2)Cc2ccc(C(=O)NO)cc2)cc1`: 16 nM.
As to `CC(C)(C)NC(=O)CN(Cc1ccc(C(=O)NO)cc1)C(=O)c1cccc2ccccc12`, the IC50 stood at 59 nM.
`Cc1ccc(C(=O)N(CC(=O)NC(C)(C)C)Cc2ccc(C(=O)NO)cc2)cc1C` had an IC50 of 20 nM.
The compound `CCCCNC(=O)CN(Cc1ccc(C(=O)NO)cc1)C(=O)c1ccc(N(C)C)cc1` displayed an IC50 of 14 nM.
In turn, `Cc1ccc(NC(=O)CN(Cc2ccc(C(=O)NO)cc2)C(=O)c2cccc(N(C)C)c2)cc1` registered an IC50 of 38 nM. Compared with the last compound, the IC50 is about 2.7-fold higher.
Regarding `CCCCNC(=O)CN(Cc1ccc(C(=O)NO)cc1)C(=O)c1cc(C)cc(C)c1`, inhibition was half-maximal at 47 nM (IC50).
On the same count and under the same terms, as for `CC(C)(C)NC(=O)CN(Cc1ccc(C(=O)NO)cc1)C(=O)c1ccccc1`, the figure is 158 nM.
Regarding `Cc1ccccc1C(=O)N(CC(=O)NC1CCCCC1)Cc1ccc(C(=O)NO)cc1`, the IC50 came to 76 nM.
In the case of `CN(C)c1cccc(C(=O)N(CC(=O)NC2CCCCC2)Cc2ccc(C(=O)NO)cc2)c1`, the IC50 is 44 nM.

The subject of another series is Plasmodium falciparum. In words: microbe, parasite or virus in culture. Particulars: Dd2, 3 h.
Turning to `CCCCNC(=O)CN(Cc1ccc(C(=O)NO)cc1)C(=O)c1cccc(N(C)C)c1`, the IC50 is 43 nM.
`CN(C)c1cccc(C(=O)N(CC(=O)NC(C)(C)C)Cc2ccc(C(=O)NO)cc2)c1` had an IC50 of 29 nM.
`Cc1ccc(C(=O)N(CC(=O)NC2CCCCC2)Cc2ccc(C(=O)NO)cc2)cc1` yielded a concentration for half-maximal inhibition (IC50) of 11 nM.
On to `CC(C)(C)NC(=O)CN(Cc1ccc(C(=O)NO)cc1)C(=O)c1cccc2ccccc12`, for which the IC50 was 51 nM.
Consider `Cc1ccc(C(=O)N(CC(=O)NC(C)(C)C)Cc2ccc(C(=O)NO)cc2)cc1C`, for which 12 nM corresponded to half-maximal inhibition (IC50).
The compound `CCCCNC(=O)CN(Cc1ccc(C(=O)NO)cc1)C(=O)c1ccc(N(C)C)cc1` returned an IC50 of 14 nM.
Compound `Cc1ccc(NC(=O)CN(Cc2ccc(C(=O)NO)cc2)C(=O)c2cccc(N(C)C)c2)cc1` gave an IC50 of 49 nM. Compared with the last compound, the IC50 is about 3.5-fold higher.
`CCCCNC(=O)CN(Cc1ccc(C(=O)NO)cc1)C(=O)c1cc(C)cc(C)c1` displayed an IC50 of 56 nM. This IC50 and that of the compound before are within 1.5-fold of each other.
The same measure, in the same setting: next, `CC(C)(C)NC(=O)CN(Cc1ccc(C(=O)NO)cc1)C(=O)c1ccccc1`: 54 nM; `Cc1ccccc1C(=O)N(CC(=O)NC1CCCCC1)Cc1ccc(C(=O)NO)cc1`: 57 nM.
For `CN(C)c1cccc(C(=O)N(CC(=O)NC2CCCCC2)Cc2ccc(C(=O)NO)cc2)c1`, half-maximal inhibition (IC50) required 37 nM.

Usually IC50 stands for the concentration that inhibits the measured activity by half.
